Values after ≈ are worked out from the molar mass of the structure shown.
Columns and labels:
[1] = system: Bacillus globigii (BM013); assay: Minimum bactericidal concentration (MBC)
B. globigii [2] = assay: DiSC3(5) membrane depolarization assay; conditions: 0-12.5 μM, 30 min, LFchimera statement at 3.1 μM, Fig. 2a
B. globigii [3] = assay: Propidium iodide (PI) membrane permeabilization assay; conditions: B. globigii ~10^8 CFU/ml in PPB, 10 μM PI, 1 h, 0.1-12.5 μM; Fig. 1a

Row | Structure (SMILES) | MBC against B. globigii [1] | DiSC3(5) fluorescence (membrane depolarization), in words (B. globigii [2]) | PI fluorescence (membrane permeabilization), in words (B. globigii [3])
1 | CC[C@H](C)[C@H](NC(=O)[C@H](CC(C)C)NC(=O)[C@@H](N)CC(=O)O)C(=O)N[C@@H](Cc1c[nH]c2ccccc12)C(=O)N[C@@H](CCCNC(=N)N)C(=O)N[C@@H](CC(C)C)C(=O)N[C@@H](CC(C)C)C(=O)N[C@@H](CO)C(=O)N[C@@H](CCCNC(=N)N)C(=O)N[C@@H](C)C(=O)N[C@@H](CCC(N)=O)C(=O)N[C@@H](CCC(=O)O)C(=O)N[C@@H](CCCNC(=N)N)C(=O)N[C@@H](Cc1ccccc1)C(=O)NCC(=O)N[C@@H](CCCCN)C(=O)N[C@@H](CC(N)=O)C(=O)N[C@@H](CCCNC(=N)N)C(=O)N[C@@H](CO)C(=O)N[C@@H](CCCNC(=N)N)C(=O)O | 0.8 µM (≈ 2 µg/mL) | – | –
2 | CC[C@H](C)[C@H](NC(=O)[C@H](CC(C)C)NC(=O)[C@@H](N)CC(=O)O)C(=O)N[C@@H](Cc1c[nH]c2ccccc12)C(=O)N[C@@H](CCCCN)C(=O)N[C@@H](CC(C)C)C(=O)N[C@@H](CC(C)C)C(=O)N[C@@H](CO)C(=O)N[C@@H](CCCCN)C(=O)N[C@@H](C)C(=O)N[C@@H](CCC(N)=O)C(=O)N[C@@H](CCC(=O)O)C(=O)N[C@@H](CCCCN)C(=O)N[C@@H](Cc1ccccc1)C(=O)NCC(=O)N[C@@H](CCCCN)C(=O)N[C@@H](CC(N)=O)C(=O)N[C@@H](CCCCN)C(=O)N[C@@H](CO)C(=O)N[C@@H](CCCCN)C(=O)O | 1.6 µM (≈ 3.78 µg/mL) | – | –
3 | CC[C@H](C)[C@H](NC(=O)[C@H](CC(C)C)NC(=O)[C@@H](N)CC(=O)O)C(=O)N[C@@H](Cc1c[nH]c2ccccc12)C(=O)N[C@@H](CCCCN)C(=O)N[C@@H](CC(C)C)C(=O)N[C@@H](CC(C)C)C(=O)N[C@@H](CO)C(=O)N[C@@H](CCCCN)C(=O)N[C@@H](C)C(=O)N[C@@H](CCC(N)=O)C(=O)N[C@@H](CCC(=O)O)C(=O)N[C@@H](CCCCN)C(=O)N[C@@H](Cc1ccccc1)C(=O)NCC(=O)N[C@@H](CCCCN)C(=O)N[C@@H](CC(N)=O)C(=O)N[C@@H](CCCCN)C(=O)N[C@@H](CO)C(=O)N[C@@H](CCCNC(=N)N)C(=O)O | 1.6 µM (≈ 3.82 µg/mL) | – | –
4 | CC[C@H](C)[C@H](NC(=O)[C@H](CC(C)C)NC(=O)[C@@H](N)CC(=O)O)C(=O)N[C@@H](Cc1c[nH]c2ccccc12)C(=O)N[C@@H](CCCCN)C(=O)N[C@@H](CC(C)C)C(=O)N[C@@H](CC(C)C)C(=O)N[C@@H](CO)C(=O)N[C@@H](CCCCN)C(=O)N[C@@H](C)C(=O)N[C@@H](CCC(N)=O)C(=O)N[C@@H](CCC(=O)O)C(=O)N[C@@H](CCCCN)C(=O)N[C@@H](Cc1ccccc1)C(=O)NCC(=O)N[C@@H](CCCCN)C(=O)N[C@@H](CC(N)=O)C(=O)N[C@@H](CCCCN)C(=O)N[C@@H](CO)C(=O)N[C@@H](CCCNC(=N)N)C(=O)NCCCC[C@H](NC(=O)CNC(=O)[C@H](CC(C)C)NC(=O)[C@H](CCCCN)NC(=O)[C@H](CCCCN)NC(=O)[C@H](CCSC)NC(=O)[C@H](CCCNC(=N)N)NC(=O)[C@H](Cc1c[nH]c2ccccc12)NC(=O)[C@H](CCC(N)=O)NC(=O)[C@H](Cc1c[nH]c2ccccc12)NC(=O)[C@H](CCCNC(=N)N)NC(=O)[C@H](CCCNC(=N)N)NC(=O)[C@H](CS)NC(=O)[C@H](CCCCN)NC(=O)[C@@H](N)Cc1ccccc1)C(N)=O | – | relative high DiSC3(5) fluorescence | comparable to LFampin265–284

Source: paper PMC5104768, “Effects of lactoferrin derived peptides on simulants of biological warfare agents” (2016)
